PubChem BioAssay (NCI)
This is a selection; strong and weak results do not stand in their true shares.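 Each cell line was grown in a 96-well plate and treated with one concentration of compound for 48 hours. Values below 10 were considered active.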 Calls of active or inactive are those of the source.

What was measured:
Experiment in all cases: NCI-60 one-dose screen, 48 h (100 = growth as untreated, 0 = no growth, -100 = all killed)
Settings in all cases: 10 µM
[1] = tested on: NCI/ADR-RES ovarian
[2] = tested on: T-47D breast
[3] = tested on: BT-549 breast
[4] = tested on: MDA-MB-435 melanoma
[5] = tested on: SW-620 colon
[6] = tested on: MCF7 breast
[7] = tested on: HCT-116 colon
[8] = tested on: HCC-2998 colon
[9] = tested on: KM12 colon

Measured: growth

Cc1ccccc1CN(CCCl)CCCl
inactive: [1] 96% | [2] 96.5% | [3] 98.1% | [4] 111% | [5] 93.2% | [6] 97.8% | [7] 100% | [8] 89.3% | [9] 112%

COc1c(C)cc(N(CCCl)CCCl)c2ccccc12
inactive: [1] 48.1% | [2] 49.5% | [3] 58% | [4] 57.3% | [5] 65.9% | [6] 29.8% | [7] 61.4% | [8] 74.7% | [9] 93.8%

Cc1ccc(S(=O)(=O)CN(CCBr)CCBr)cc1
inactive: [1] 109% | [2] 101% | [3] 113% | [4] 105% | [5] 105% | [6] 78.7% | [7] 107% | [8] 112% | [9] 127%

COc1ccc(C(=O)O)cc1N(CCCl)CCCl
inactive: [1] 99.3% | [2] 91.9% | [3] 97.1% | [4] 101% | [5] 92.1% | [6] 88.3% | [7] 109% | [8] 105% | [9] 101%

COc1cc(CN(CCCl)CCCl)cc(OC)c1
inactive: [1] 101% | [2] 89.4% | [3] 96.3% | [4] 102% | [5] 98.8% | [6] 87.2% | [7] 93.5% | [8] 95.6% | [9] 108%

O=CC(O)C(O)C(O)C(O)CN(CCCl)CCCl (stereo not given)
inactive: [1] 104% | [2] 91.5% | [3] 101% | [4] 97.5% | [5] 97.8% | [6] 96.6% | [7] 105% | [8] 109% | [9] 99.4%

O=C(O)Cc1c[nH]c2ccc(N(CCCl)CCCl)cc12
inactive: [1] 99.3% | [2] 99.6% | [3] 89.8% | [4] 103% | [5] 91.4% | [6] 91.3% | [7] 101% | [8] 102% | [9] 113%

C1CCNCC1.O=C(O)C(O)c1ccc(N(CCCl)CCCl)cc1 (stereo not given)
inactive: [1] 108% | [2] 106% | [3] 95.7% | [4] 103% | [5] 92.5% | [6] 96.8% | [7] 96.5% | [8] 108% | [9] 103%

O=C(O)CCc1ccc(CSCCCl)cc1
inactive: [1] 107% | [2] 102% | [3] 107% | [4] 104% | [5] 105% | [6] 91.6% | [7] 105% | [8] 94.8% | [9] 102%

CCOc1ccc(N(CCCl)CCCl)cc1
inactive: [1] 73.2% | [2] 64.9% | [3] 79.7% | [4] 73.6% | [5] 62.9% | [6] 32.6% | [7] 72.3% | [8] 97.8% | [9] 90.9%

N#CC1(Nc2ccccc2)CCN(Cc2ccccc2)CC1
inactive: [1] 105% | [2] 28.9% | [3] 204% | [4] 97.8% | [5] 103% | [6] 97.5% | [7] 101% | [8] 91% | [9] 101%

CCC(C)(C)c1ccc(O)c(CN(CCCl)CCCl)c1
inactive: [1] 100% | [2] 98.3% | [3] 82.3% | [4] 104% | [5] 105% | [6] 86.5% | [7] 99.4% | [8] 105% | [9] 108%

Cc1ccc(CN(CCCl)CCCl)cc1
inactive: [1] 94.3% | [2] 87.2% | [3] 88.3% | [4] 106% | [5] 78.8% | [6] 80.5% | [7] 89.6% | [8] 89.1% | [9] 110%

CC1(C)NC(=O)N(CCN(CCCl)CCCl)C1=O
inactive: [1] 109% | [2] 97.2% | [3] 109% | [4] 109% | [5] 107% | [6] 98.6% | [7] 107% | [8] 106% | [9] 108%

Cc1ccc(NC2(C(N)=O)CCNCC2)cc1
inactive: [1] 103% | [2] 104% | [3] 79.5% | [4] 106% | [5] 106% | [6] 95.1% | [7] 97.2% | [8] 94.4% | [9] 102%
